A word on the Ki: it is the equilibrium dissociation constant of an inhibitor or competing ligand from its target.

Protein sequences, listed by entry. Tags and fused reporters are not part of them.
UniProt Q07820, whole entry, species assumed: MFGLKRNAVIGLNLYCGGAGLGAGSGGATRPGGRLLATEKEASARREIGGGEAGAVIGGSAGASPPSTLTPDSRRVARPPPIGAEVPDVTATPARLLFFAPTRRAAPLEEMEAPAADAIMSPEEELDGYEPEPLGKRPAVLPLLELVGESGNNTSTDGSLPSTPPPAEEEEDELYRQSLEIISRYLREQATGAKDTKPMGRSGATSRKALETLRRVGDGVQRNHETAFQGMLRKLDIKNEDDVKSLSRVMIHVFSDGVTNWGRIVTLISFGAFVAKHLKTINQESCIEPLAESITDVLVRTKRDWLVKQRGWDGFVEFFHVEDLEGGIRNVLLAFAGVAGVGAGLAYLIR

From patent US20190185518A9, “WARHEAD-CONTAINING PEPTIDOMIMETIC MACROCYCLES AS MODULATORS OF BFL-1” (AILERON Therapeutics, Inc., priority 2017, published 2019) come the findings set out here.

The test deals with Mcl-1 (Homo sapiens, UniProt Q07820). Kind of test: Ki determination for Mcl-1 (BCL-2 family binding spectrum). To be noted: TABLE 8. The text has this: To assess the binding and affinity of compounds that antagonize the interaction between a peptide and an acceptor protein, a fluorescence polarization assay (FPA) utilizing a fluoresceinated peptidomimetic macrocycle derived from a peptidomimetic precursor sequence is used, for example. The FPA technique measures the molecular orientation and mobility using polarized light and fluorescent tracer. […] A compound that antagonizes the interaction between the fluoresceinated peptidomimetic macrocycle and an acceptor protein will be detected in a competitive binding FPA experiment.
Antagonist binding activity is measured, for example, by fluorescence polarization on a luminescence spectrophotometer (e.g. Perkin-Elmer LS50B). Kd values may be determined by nonlinear regression analysis using, for example, Graphpad Prism software (GraphPad Software, Inc., San Diego, Calif.).

Some results are limits rather than exact numbers.

`CN(C)CC[C@H](CSc1ccccc1)Nc1ccc(S(=O)(=O)NC(=O)c2ccc(N3CCN(Cc4ccccc4-c4ccc(Cl)cc4)CC3)cc2)cc1[N+](=O)[O-]` [ABT-737, reference compound]: the Ki was greater than 1 µM.
